The assay deals with T1, Sterol regulatory element-binding protein 2 (Homo sapiens, UniProt Q12772).
T1 sequence (Q12772 whole entry): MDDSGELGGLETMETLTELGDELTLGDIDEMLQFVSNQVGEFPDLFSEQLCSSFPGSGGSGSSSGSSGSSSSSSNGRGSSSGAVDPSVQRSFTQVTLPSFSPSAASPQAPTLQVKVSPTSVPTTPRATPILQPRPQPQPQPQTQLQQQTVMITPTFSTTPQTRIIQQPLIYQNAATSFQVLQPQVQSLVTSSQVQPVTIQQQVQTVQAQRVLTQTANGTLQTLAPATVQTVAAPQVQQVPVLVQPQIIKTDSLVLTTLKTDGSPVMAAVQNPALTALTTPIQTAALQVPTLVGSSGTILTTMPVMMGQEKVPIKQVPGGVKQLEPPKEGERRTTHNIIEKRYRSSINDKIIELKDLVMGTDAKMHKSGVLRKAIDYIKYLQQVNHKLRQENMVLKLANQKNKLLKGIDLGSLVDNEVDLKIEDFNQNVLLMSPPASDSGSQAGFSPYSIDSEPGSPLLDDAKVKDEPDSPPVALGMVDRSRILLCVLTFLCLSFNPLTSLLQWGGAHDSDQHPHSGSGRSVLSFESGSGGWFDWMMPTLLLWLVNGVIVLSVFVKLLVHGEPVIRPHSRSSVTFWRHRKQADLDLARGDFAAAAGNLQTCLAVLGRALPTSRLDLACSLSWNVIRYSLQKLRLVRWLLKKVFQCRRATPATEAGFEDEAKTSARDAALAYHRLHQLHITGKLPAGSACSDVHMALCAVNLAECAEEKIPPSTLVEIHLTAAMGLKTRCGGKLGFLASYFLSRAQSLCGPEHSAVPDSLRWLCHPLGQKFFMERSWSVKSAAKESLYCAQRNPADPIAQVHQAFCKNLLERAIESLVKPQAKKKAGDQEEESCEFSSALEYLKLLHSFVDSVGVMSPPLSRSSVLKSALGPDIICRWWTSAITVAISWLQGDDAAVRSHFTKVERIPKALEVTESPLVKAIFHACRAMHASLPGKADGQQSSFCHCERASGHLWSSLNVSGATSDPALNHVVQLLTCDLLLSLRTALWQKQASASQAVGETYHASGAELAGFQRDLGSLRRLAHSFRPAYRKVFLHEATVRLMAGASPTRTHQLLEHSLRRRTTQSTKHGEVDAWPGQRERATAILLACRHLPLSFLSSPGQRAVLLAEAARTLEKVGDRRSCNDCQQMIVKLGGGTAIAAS
The assay can be described thus: In Vitro Assay-SREBP-2. The method, then: 10,000 cells/well of the PathHunter U2OS SREBP-2 Nuclear Translocation Cell Line are plated in quadruplicate on 384 well plates in 20 μL of AssayComplete cell plating 5 reagent (CP5-high serum) overnight at 37° C./5% CO2. A dilution series of test compound is added to cells, incubated for 1 hour at 37° C./5% CO2, and U18666A (a known SREBP agonist) is added to a final concentration of 10 μM. The plate is incubated overnight (16 hours) at 37° C./5% CO2. PathHunter Flash detection mix is added to the wells, incubated one hour in the dark, and the plate read on an Envision luminometer.

pIC50: −log10 of the molar value.

Compound `COCCOC(=O)N1CCN(C(=O)CC[C@@H](C)[C@H]2CC[C@H]3[C@@H]4CC=C5C[C@@H](O)CC[C@]5(C)[C@H]4CC[C@]23C)CC1` [US20230340011, Example 424.] gave a pIC50 not below 6.60.

As usually defined, the pIC50 is the IC50 on a negative log10 scale, so that one unit is a factor of ten. Low values mean a large IC50, high ones a small IC50.
